This passage reports LD50 results from US4622328A, “Phenyl-naphthyridines and drugs containing them, particularly anti-ulcer drugs” (priority 1984, dated 1986).

The LD50 is the dose at which mortality reaches 50%.

The data set is described as follows: in vivo. The settings on record: fasting Sprague Dawley rat, oral route.

Molecules are shown by their SMILES.

`Cc1cc2cccnc2n(-c2ccccc2)c1=O` [Example 11, 1-phenyl 1,2-dihydro 2-oxo 3-methyl 1,8-naphthyridine] registered a 50% lethal dose (LD50) of 256 mg/kg.
